Molecular target: BPTF-PHD-Bromo (BPTF-PB), GST tag removed (human, UniProt Q12830 2865-3033)
Assay: ITC

| Binder | Kd |
| --- | --- |
| ARTKQTARKSTGGKAPR (K4 tri-methylation (me3); K9 butyrylation (bu)) [H3(1–17) H3K4me3K9bu peptide] | 27.6 µM |
| ARTKQTARKSTGGKAPR (K4 tri-methylation (me3); K9 acetylation (ac)) [H3(1–17) H3K4me3K9ac peptide] | 15.8 µM |
| ARTKQTARKSTGGKAPR (K4 tri-methylation (me3); K9 2-hydroxybutyrylation (hib)) [H3(1–17) H3K4me3K9hib peptide] | 14.1 µM |
| ARTKQTARKSTGGKAPR (K4 tri-methylation (me3); K9 crotonylation (cr)) [H3(1–17) H3K4me3K9cr peptide] | 17.5 µM |

Source: paper PMC6961217 (Journal of Advanced Research, 2019)
